Only a part is listed here, and it is no random draw. Activity calls are given as the source filed them.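 The calls were made as follows: active = pattern-corrected inhibition of lipid staining of at least 50% with the nuclear-stain viability signal not falling by more than 50%; inactive = the rest, inconclusive results apart.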
Experiment: inhibitors of triacylglycerol accumulation, primary screen, cell-based, uHTS, fluorescence, H9c2 (AID 651582);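 also: 0% = DMSO wells and 100% = triacsin C control wells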
Conditions: H9c2 cells, Nile Red lipid (TAG) fluorescence; at 12.5 µM; stronger effect = higher value; cells loaded with 200 µM oleic acid
With `CP(=O)(Oc1ccccc1)N1CCOC1=O` (centres undefined) the inhibition was inactive: -16.1%.
In the case of `O=[N+]([O-])c1cc([N+](=O)[O-])c(CCNc2ccccc2)c([N+](=O)[O-])c1`, the inhibition is reported as inactive: -1.8%.
With `CCc1ccc(OP(C)(=O)Nc2cccnc2)cc1` (centres undefined) the inhibition was inactive: -12.9%.
For `COc1ccccc1OP(C)(=O)Nc1c(C)n(C)n(-c2ccccc2)c1=O` (centres undefined), the inhibition was inactive: 2.12%.
With `O=[N+]([O-])c1cccc2n[nH]nc12` the inhibition was inactive: -6.9%.
In the case of `O=C(OCCCN1CCCC1)C(O)(c1ccccc1)C1CCCCC1` (centres undefined), the inhibition is reported as inactive: -3.04%.
With `CCN(/C(=N/P(=O)(N1CCOCC1)N1CCOCC1)N1CCOCC1)c1ccc(OC)cc1` the inhibition was inactive: -5.11%.
For `Nc1ccc([As](=O)(O)c2ccc(N)cc2)cc1`, the inhibition was inactive: 0.311%.
With `COc1ccccc1OP(C)(=O)Nc1ccccc1Br` (centres undefined) the inhibition was inactive: -26.5%.
In the case of `C[N+]1=C2C=CC=CC=C2SC12C([N+](=O)[O-])=CC([N+](=O)[O-])=C[C-]2[N+](=O)[O-]` (centres undefined), the inhibition is reported as inactive: 92.8%.
For `c1cc(-c2nn[nH]n2)ccc1-c1nn[nH]n1`, the inhibition was inactive: 9.2%.
In the case of `CC1CCN(C(=O)Oc2c(Cl)cc(Cl)c3cccnc23)CC1`, the inhibition is reported as inactive: -4.75%.
In the case of `CN(C)C(=O)c1c([N+](=O)[O-])cc([N+](=O)[O-])cc1[N+](=O)[O-]`, the inhibition is reported as inactive: 33.9%.
With `CC(C)=N/N=C(\N)N[N+](=O)[O-]` the inhibition was inactive: 4.62%.
For `CC(C)c1nc(Nc2ccccc2)n(P(=O)(N(C)C)N(C)C)n1`, the inhibition was inactive: 12.7%.
With `COc1ccccc1OP(C)(=O)Nc1ccc(Br)cc1` (centres undefined) the inhibition was inactive: -3.15%.
With `CN(C(=O)Cc1ccc(Cl)c(Cl)c1)[C@H]1CCCC[C@H]1N1CCCC1` the inhibition was inactive: -20.2%.
With `Cc1ccc(N/C(=N/P(=O)(N2CCOCC2)N2CCOCC2)N2CCOCC2)cc1` the inhibition was inactive: -7.81%.
With `NC(=O)c1cc([N+](=O)[O-])cc([N+](=O)[O-])c1N` the inhibition was inactive: 2.97%.
In the case of `Clc1ccc(Cl)c(NC2=NCC(CBr)S2)c1` (centres undefined), the inhibition is reported as inactive: -18.4%.
For `CN1CCCC(OC(=O)C(c2ccccc2)c2ccccc2)C1` (centres undefined), the inhibition was inactive: -1.07%.
In the case of `COc1ccccc1OP(=O)(Nc1ccc(C)cn1)Oc1ccccc1OC`, the inhibition is reported as inactive: -28.3%.
In the case of `Cc1ccc(OP(=O)(Nc2nccs2)Oc2ccc(C)cc2)cc1`, the inhibition is reported as inactive: -21.9%.
In the case of `O=[N+]([O-])c1cc([N+](=O)[O-])c(Nc2ccccn2)c([N+](=O)[O-])c1`, the inhibition is reported as inactive: -13.6%.
In the case of `Cc1c(NP(C)(=O)Oc2ccc(C(C)C)cc2)c(=O)n(-c2ccccc2)n1C` (centres undefined), the inhibition is reported as inactive: 6.58%.
In the case of `Nc1cc(N)c2nonc2c1[N+](=O)[O-]`, the inhibition is reported as inactive: 3.14%.
With `CCc1ccc(OP(C)(=O)O)cc1` the inhibition was inactive: 8.39%.
In the case of `CP(=O)(Nc1ccccn1)Oc1ccccc1` (centres undefined), the inhibition is reported as inactive: -29.6%.
With `COc1ccccc1OP(C)(=O)Nc1ccc(C)cc1C` (centres undefined) the inhibition was inactive: -60.2%.
In the case of `O=C1C(O)=C([N+](=O)[O-])C(=O)C(O)=C1[N+](=O)[O-]`, the inhibition is reported as inactive: 6.96%.
With `Cc1cc(C)cc(OP(C)(=O)Nc2cccc(C(F)(F)F)c2)c1` (centres undefined) the inhibition was inactive: 13.5%.
For `CN(C)P(=O)(N(C)C)n1c(Nc2ccccc2)nnc1-c1ccccc1`, the inhibition was inactive: 17.9%.
For `O=P(Nc1nc2ccc(Cl)cc2s1)(c1ccccc1)c1ccccc1`, the inhibition was inactive: -3.4%.
With `CCCC1OP(N)(=O)OCC1CC` (centres undefined) the inhibition was inactive: -13.6%.
For `Cc1ccc(NP(=O)(Oc2ccccc2F)Oc2ccccc2F)nc1`, the inhibition was inactive: -24.9%.
With `CN(C(=O)Cc1ccc(Cl)c(Cl)c1)[C@H]1CCCC[C@@H]1N1CCCC1` the inhibition was inactive: 0.668%.
For `CP(=O)(OCCOc1ccccc1)OCCOc1ccccc1`, the inhibition was inactive: 19%.
For `CP(=O)(Nc1ccc(Cl)cc1Cl)Oc1ccccc1` (centres undefined), the inhibition was inactive: -22.9%.
With `CCCCCCCCCCCCCCCC1C[N+](C)(C)CCOP(C)(=O)O1` (centres undefined) the inhibition was inactive: -1.79%.

Reference: PubChem BioAssay AID651582 (Sanford-Burnham Center for Chemical Genomics, 2012)
